Test results as given in PubChem BioAssay (Tox21).
The entries are a selection whose mix differs from that of the whole data set. Results filed as inconclusive are left out. Activity calls are given as the source filed them. Unless noted, the call rests on the fitted dose curve.

Protein sequences, listed by entry. Tags and fused reporters are not part of them.
UniProt P30968, whole entry: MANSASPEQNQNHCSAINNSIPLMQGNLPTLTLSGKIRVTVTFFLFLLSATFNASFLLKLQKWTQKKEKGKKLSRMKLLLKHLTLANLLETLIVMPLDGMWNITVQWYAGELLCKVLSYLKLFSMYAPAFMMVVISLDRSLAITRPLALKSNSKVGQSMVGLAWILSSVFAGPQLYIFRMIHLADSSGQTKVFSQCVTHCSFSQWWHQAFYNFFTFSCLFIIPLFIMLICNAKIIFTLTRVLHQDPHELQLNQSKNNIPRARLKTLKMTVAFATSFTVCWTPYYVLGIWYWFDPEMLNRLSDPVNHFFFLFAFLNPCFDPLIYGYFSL
UniProt Q969F8, whole entry: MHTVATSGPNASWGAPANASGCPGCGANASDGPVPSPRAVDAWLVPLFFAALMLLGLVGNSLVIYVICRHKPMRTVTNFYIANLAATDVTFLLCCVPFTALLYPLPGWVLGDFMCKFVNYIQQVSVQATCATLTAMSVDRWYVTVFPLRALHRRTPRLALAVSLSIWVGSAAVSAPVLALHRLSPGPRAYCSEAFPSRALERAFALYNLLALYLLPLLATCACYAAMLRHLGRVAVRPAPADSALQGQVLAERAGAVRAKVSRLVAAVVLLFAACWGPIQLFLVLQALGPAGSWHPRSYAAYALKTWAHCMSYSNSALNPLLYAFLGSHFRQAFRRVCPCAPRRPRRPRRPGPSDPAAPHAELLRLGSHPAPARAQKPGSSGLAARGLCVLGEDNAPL
UniProt P28223, whole entry: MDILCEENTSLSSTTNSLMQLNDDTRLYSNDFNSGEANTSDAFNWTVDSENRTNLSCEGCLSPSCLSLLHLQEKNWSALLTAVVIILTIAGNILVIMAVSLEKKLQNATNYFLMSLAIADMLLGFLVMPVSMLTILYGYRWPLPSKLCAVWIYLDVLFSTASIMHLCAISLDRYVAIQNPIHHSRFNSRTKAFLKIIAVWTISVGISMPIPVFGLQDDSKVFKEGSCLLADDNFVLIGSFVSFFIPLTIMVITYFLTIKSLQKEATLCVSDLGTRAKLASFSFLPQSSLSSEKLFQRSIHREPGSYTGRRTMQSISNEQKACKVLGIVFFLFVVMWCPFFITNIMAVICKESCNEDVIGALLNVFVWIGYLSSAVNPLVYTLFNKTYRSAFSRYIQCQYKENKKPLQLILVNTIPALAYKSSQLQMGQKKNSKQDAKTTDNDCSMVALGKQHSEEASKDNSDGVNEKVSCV
UniProt P07550, whole entry: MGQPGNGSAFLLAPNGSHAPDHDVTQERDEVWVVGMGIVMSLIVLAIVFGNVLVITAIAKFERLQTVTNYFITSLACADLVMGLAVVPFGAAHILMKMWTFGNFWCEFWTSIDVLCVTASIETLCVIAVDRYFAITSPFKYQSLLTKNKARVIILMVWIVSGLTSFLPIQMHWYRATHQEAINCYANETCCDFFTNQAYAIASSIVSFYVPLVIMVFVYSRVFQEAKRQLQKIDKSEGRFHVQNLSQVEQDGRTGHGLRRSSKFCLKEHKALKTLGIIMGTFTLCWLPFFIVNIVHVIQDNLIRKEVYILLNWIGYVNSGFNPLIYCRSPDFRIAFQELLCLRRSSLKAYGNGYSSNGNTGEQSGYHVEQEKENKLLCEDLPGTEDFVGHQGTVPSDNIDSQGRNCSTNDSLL
UniProt P14416, whole entry: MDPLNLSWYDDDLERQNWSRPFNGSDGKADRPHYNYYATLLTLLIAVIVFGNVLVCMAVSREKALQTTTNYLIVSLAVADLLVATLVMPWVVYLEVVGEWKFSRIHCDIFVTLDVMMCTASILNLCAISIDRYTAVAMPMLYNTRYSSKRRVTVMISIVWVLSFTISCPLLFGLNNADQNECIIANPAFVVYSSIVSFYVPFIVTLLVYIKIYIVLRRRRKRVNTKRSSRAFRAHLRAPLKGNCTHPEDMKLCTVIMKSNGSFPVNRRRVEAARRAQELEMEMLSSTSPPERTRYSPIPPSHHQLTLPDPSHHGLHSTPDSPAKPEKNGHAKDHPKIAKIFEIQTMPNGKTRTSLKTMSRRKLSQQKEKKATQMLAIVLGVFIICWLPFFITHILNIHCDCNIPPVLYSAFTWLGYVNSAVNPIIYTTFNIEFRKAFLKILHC

How the values were obtained:
[1] = Nuclear factor erythroid 2-related factor 2/antioxidant responsive element (Nrf2/ARE) small molecule agonists: qHTS cell viability counter screen in human keratinocytes (AID 1919968; active means well fitted curve in the direction sought with a large enough effect in the repeat runs; an effect the other way counts as inactive or inconclusive; further: nearly all actives have a fitted effect of over 55% in size); settings: KeratinoSens HaCaT ARE cells viability, CellTiter-Fluor, 24 h; at 92.4 µM (top of the series)
Outline: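 Fluorescence read-out from CellTiter-Fluor after 1 h at 37 C. Wells held HaCaT-derived ARE-luciferase reporter cells (1,500/well) treated 23 h with DMSO-dissolved compounds. Run in the same wells as the luciferase agonist read.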

[2] = Nuclear factor erythroid 2-related factor 2/antioxidant responsive element (Nrf2/ARE) small molecule agonists: luciferase reporter gene qHTS assay in human keratinocytes (AID 1919969); settings: KeratinoSens HaCaT ARE-luciferase, luminescence, 24 h; at 92.4 µM (top of the series); further: nearly all actives have a fitted effect of over 35% in size
Text: National Center for Advancing Translational Sciences [NCATS]
Division of Preclinical Innovation [DPI]
U.S. Environmental Protection Agency [EPA]
National Institutes of Environmental Health Sciences [NIEHS]
National Toxicology Program [NTP]
U.S. Food and Drug Administration [FDA]
Oxidative stress has been implicated in the pathogenesis of a variety of diseases ranging from cancer to neurodegeneration. The antioxidant response element (ARE) signaling pathway plays an important role in the amelioration of oxidative stress. The KeratinoSens (Givaudan, Switzerland) is an in vitro test method which quantifies luciferase induction as a measure of activation of Keap1-Nrf2-antioxidationt/electrophile response element (ARE) dependant pathway in HaCaT human keratinocytes stably transfected with a selectable plasmid. The KeratinoSens assay is a cell-based assay with a reporter cell line to detect potential skin sensitizers by their ability to induce the Nrf2/ARE-response. The activation of the report gene under culture conditions can be detected by ONE-Glo Luciferase Assay System (Promega, Madison, WI). This cell line has been used to screen the Tox21 10K compound library to identify agonists that induce oxidative stress. […]
HaCaT derived cell line KeratinoSens were dispensed at 1,500 cells/5uL/well in 1536-well white wall/solid bottom plates using a Multidrop Combi (ThermoFisher Scientific, Waltham, MA) dispenser. […] The plates were incubated at 37 C/5% CO2 for 23 h, followed by addition of 1uL/well of CellTiter-Fluor reagent into the assay plates using a Flying Reagent Dispenser (Aurora Discovery, San Diego, CA) for cell viability readout that measures cytotoxicity. After 1 h incubation at 37 C/5% CO2 the fluorescence intensity was measured using a ViewLux (PerkinElmer, Shelton, CT) plate reader. […] After the plates were incubated at room temperature for 30 min, the luminescence intensity in the assay plates was measured using ViewLux plate reader.

[3] = biological target: Gonadotropin-releasing hormone receptor (Homo sapiens) (UniProt P30968); experiment: Human gonadotropin-releasing hormone receptor (GnRHR) small molecule agonists, calcium flux assay in GnRHR-HEK293 cells (AID 1920063); settings: calcium flux fluorescence, agonist mode, at 57.6 µM (top of the series), hits give high values; further: nearly all actives have a fitted effect of over 35% in size
Outline: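 Calcium-dye fluorescence, Ex/Em=480/540, recorded every 1 sec over 3 min after compound addition to GnRHR-HEK293 cells. Cells had been seeded 18 hours earlier and dye-loaded for 1 hour at 37 C. Fifteen concentrations, triplicates.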

[4] = biological target: KiSS-1 receptor (Homo sapiens) (UniProt Q969F8); experiment: Human kisspeptin (KISS1R) small molecule agonists, calcium flux assay in KISS1R-HEK293 cells (AID 1920064; active means well fitted curve in the direction sought with a large enough effect in the repeat runs; an effect the other way counts as inactive or inconclusive); settings: KISS1R-HEK293, calcium flux fluorescence, agonist; at 76.8 µM (top of the series)
Outline: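 Calcium flux read-out: kinetic fluorescence at Ex/Em=480/540, 1 s intervals over 3 min, after pin-tool compound addition to dye-loaded KISS1R-HEK293 cells. Fifteen concentrations, triplicates.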

[5] = G protein-coupled receptor (GPCR) small molecule agonists, calcium flux assay: HEK293 wild type cell line counter screen (AID 1920065); settings: HEK293 WT calcium flux, fluorescence, agonist mode; at 57.6 µM (top of the series)
Outline: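 Agonist mode; 18 h seeding at 37 C, 1 h dye load at 37 C; compounds pinned from DMSO, ATP as positive control; kinetic fluorescence 480/540 nm, 3 min, 1 s reads; 15 concentrations, triplicate.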

[6] = p53 small molecule agonists, cell-based qHTS assay with human liver microsomes (AID 1963577); settings: HCT-116 p53RE-bla with human liver microsomes, ratio, 16 h; at 66 µM (top of the series);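 further: p53 response element beta-lactamase reporter cells with liver microsomes plus NADPH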
Outline: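 In this qHTS, p53 response-element beta-lactamase cells receive test compound together with a microsome/NADPH activating system (0.5 mg/mL final each) and are incubated 16 h at 37 C before LiveBLAzer fluorescence detection.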

[7] = p53 small molecule agonists, cell-based qHTS assay with rat liver microsomes (AID 1963578); settings: HCT-116 p53RE-bla, beta-lactamase ratio, 16 h, at 66 µM (top of the series)
Outline: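 Agonist mode in p53RE-bla reporter cells, with compounds co-incubated 16 h at 37 C alongside 0.5 mg/mL rat liver microsomes and 0.5 mg/mL NADPH (final), followed by a 2 h LiveBLAzer detection step.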

[8] = p53 small molecule agonists, cell-based qHTS assay with human liver microsomes: qHTS cell viability counter screen (AID 1963579); settings: p53RE-bla HCT-116 viability, ATP luminescence, 16 h, HLM; at 66 µM (top of the series); further: nearly all actives have a fitted effect of over 45% in size
Outline: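 Metabolically activated exposure: compounds, human liver microsomes and NADPH (0.5 mg/mL final apiece) were added to p53RE-bla cells seeded 5 h earlier, left 16 h at 37 C, and then assessed for viability by CellTiter-Glo luminescence.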

[9] = p53 small molecule agonists, cell-based qHTS assay with rat liver microsomes: qHTS cell viability counter screen (AID 1963580); settings: p53RE-bla HCT-116 + rat microsomes, ATP viability, 16 h; at 66 µM (top of the series) unless noted; further: nearly all actives have a fitted effect of over 45% in size
Outline: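 Luminescent ATP readout (CellTiter-Glo, 30 min at room temperature) reports viability of p53RE-bla HCT-116 cells after 16 h at 37 C with test compounds under metabolic activation by rat liver microsomes and NADPH at 0.5 mg/mL final each.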

[10] = p53 small molecule agonists, cell-based qHTS assay: qHTS cell viability counter screen (AID 1963581); settings: p53RE-bla HCT-116 viability, ATP luminescence, 16 h; at 66 µM (top of the series); further: nearly all actives have a fitted effect of over 45% in size
Outline: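 Cytotoxicity read-out: ATP-based luminescence (CellTiter-Glo, 30 min RT) measured in the same wells as the p53 reporter assay, HCT-116 p53RE-bla cells, 16 h compound exposure at 37 C.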

[11] = biological target: 5-hydroxytryptamine receptor 2A (Homo sapiens) (UniProt P28223); experiment: 5-hydroxytryptamine receptor 2A (HTR2A) small molecule antagonists, cell-based qHTS assay (AID 1963586); settings: HTR2A-CHO cells, DOI-induced calcium flux, fluorescence; at 61.5 µM (top of the series); further: nearly all actives have a fitted effect of over 45% in size
Outline: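 CHO cells stably expressing human HTR2A were plated for 18 h at 37 C, then loaded with calcium dye for 1 h. Compounds were preincubated 5 min at room temperature before DOI (4 nM solution) was added. Kinetic fluorescence was read for 3 min.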

[12] = biological target: 5-hydroxytryptamine receptor 2A (Homo sapiens) (UniProt P28223); experiment: 5-hydroxytryptamine receptor 2A (HTR2A) small molecule agonists, cell-based qHTS assay (AID 1963587); settings: HTR2A-CHO cells, calcium flux fluorescence, agonist mode; at 76.8 µM (top of the series); further: nearly all actives have a fitted effect of over 30% in size
Outline: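 HTR2A-CHO cells, plated 18 h at 37 C/5% CO2, dye-loaded 1 h at 37 C; compounds in DMSO added by pin tool (agonist mode). Intracellular calcium flux read as kinetic fluorescence on FDSS over 2 min at 1 s intervals.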

[13] = biological target: Beta-2 adrenergic receptor (Homo sapiens) (UniProt P07550); experiment: Adrenergic beta2 receptor (ADRB2) small molecule antagonists, cell-based qHTS assay (AID 1963592); settings: CHO-ADRB2 cells, isoproterenol-stimulated cAMP HTRF ratio, 0.5 h; at 92.4 µM (top of the series); further: nearly all actives have a fitted effect of over 50% in size
Outline: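 Assay format: CHO-ADRB2 cells, 18-20hr seeding at 37C/5% CO2, then compound plus 1nM isoproterenol agonist mix for 0.5hr RT. Homogeneous time-resolved fluorescence cAMP detection after 1hr, expressed as 665/615 nm ratio.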

[14] = biological target: Beta-2 adrenergic receptor (Homo sapiens) (UniProt P07550); experiment: Adrenergic beta2 receptor (ADRB2) small molecule agonists, cell-based qHTS assay (AID 1963593); settings: CHO-ADRB2 cells, cAMP HTRF, 30 min; at 92.4 µM (top of the series);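 further: CHO cells stably overexpressing human ADRB2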
Outline: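 CHO cells stably over-expressing ADRB2 were plated overnight at 37C, then dosed with compounds plus a stimulation mix containing 100uM IBMX and 25uM Ro-20-1724 for 0.5hr at room temperature. cAMP was measured by HTRF competition, 1hr.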

[15] = biological target: D(2) dopamine receptor (Homo sapiens) (UniProt P14416); experiment: Dopamine D2 receptor (DRD2) small molecule agonists, cell-based qHTS assay (AID 1963594); settings: HEK293-DRD2 cAMP HTRF, agonist mode, 30 min; at 92.4 µM (top of the series); further: nearly all actives have a fitted effect of over 35% in size
Outline: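 HEK293 cells stably expressing DRD2 were cultured 24 h at 37 C, then given Ro20-1724 (0.1 mM final) and compounds for 10 min at room temperature. NKH477 (200nM) was then added for 30 min. cAMP was read by HTRF.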

[16] = biological target: D(2) dopamine receptor (Homo sapiens) (UniProt P14416); experiment: Dopamine D2 receptor (DRD2) small molecule antagonists, cell-based qHTS assay (AID 1963595; active means well fitted inhibition curve with a large enough effect in the signal ratio in the repeat runs, with a control signal flat; the % refers to the signal ratio); settings: HEK293-DRD2 cAMP HTRF antagonist mode; at 92.4 µM (top of the series)
Outline: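 In this cell-based antagonist screen, compounds act for 10 min at room temperature before a 30 min challenge with 12 nM quinpirole and 200 nM NKH477. cAMP is quantified by HTRF competition in DRD2-HEK293 cells containing 0.1 mM Ro20-1724.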

[17] = p53 small molecule agonists, cell-based qHTS assay (AID 1963582; active means well fitted activation curve with a large enough effect in the signal ratio in the repeat runs, not every such curve was filed as active; the % refers to the signal ratio)
Outline: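 Fluorescence intensity read-out of a beta-lactamase reporter under a p53 response element. Cells were exposed to DMSO-dissolved compounds for 16 h at 37 C, then developed with FRET substrate for 2 h at RT.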

[18] = cAMP Responsive Elements (CRE) small molecule agonists, cell-based qHTS assay (AID 1963590); settings: CRE-bla HEK293T, beta-lactamase FRET ratio, 3 h; at 92.4 µM (top of the series)
Outline: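 Beta-lactamase reporter readout: LiveBLAzer B/G FRET substrate, 2 h at room temperature, added after 3 h compound treatment of CRE-bla HEK 293T cells at 37 C/5% CO2.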

[19] = cAMP Responsive Elements (CRE) small molecule antagonists, cell-based qHTS assay (AID 1963591; active means well fitted inhibition curve with a large enough effect in the signal ratio in the repeat runs, not every such curve was filed as active; the % refers to the signal ratio); settings: CRE-bla HEK293T, beta-lactamase FRET ratio; at 92.4 µM (top of the series)
Outline: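 HEK293T CRE-bla; 18 h preincubation; compound pin-transfer; NKH477 0.25 uM final, 3 h, 37 C; LiveBLAzer FRET substrate 2 h RT.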
On the % scale 0 is the no-effect control and ±100 the full control effect.

CCC(=O)N(c1ccccc1)C1(COC)CCN(CCc2cccs2)CC1
inactive: activity change, negative = cytotoxicity [1] -15.2% | activity, positive = activation [2] -0.031% | activity change [3] 0.614% | activation [4] 3.18% | activation [5] -0.0375% | activation [6] 2.69% | activation [7] 0.971% | activity change, negative = cytotoxicity [8] -17.6% | activity change, negative = cytotoxicity [9] 1.07% | activity change, negative = cytotoxicity [10] 1.72% | activity, negative = inhibition [11] 6.05% | activation [12] -9.83% | activity change, negative = inhibition [13] -11.3% | activation [14] -1.47% | activation [15] 0.517% | activity change, negative = inhibition [16] -12.6%

O=[N+]([O-])C(Cl)(Cl)Cl
inactive: activity change, negative = cytotoxicity [1] -2.06% | activity, positive = activation [2] -5.75% | activity change [3] 0.53% | activation [4] 0.0628% | activation [5] -0.433% | activation [6] 1.82% | activation [7] 10.7% | activity change, negative = cytotoxicity [8] 5.46% | activity change, negative = cytotoxicity [9] 0.615% | activity change, negative = cytotoxicity [10] -4.05% | Potency [17] | activity, negative = inhibition [11] -16.6% | activation [18] 0.288% | activity change, negative = inhibition [19] -0.303% | activity change, negative = inhibition [13] 0.591% | activation [14] 26.2% | activation [15] -2.89% | activity change, negative = inhibition [16] -7.29%
